From US11911467B2, “Composition comprising PIC for treatment of cancer” (Yisheng Biopharma (Singapore) PTE LTD, priority 2016, dated 2024) come the findings set out here.

For this test, the system named is LL/2 murine Lewis lung tumor. The settings on record: end of study; 0.2 mL/mouse i.m. Q2D total 7 times; Cisplatin 5 mg/kg i.v. total 2 times.

Consider Cisplatin, for which the “Relative tumor proliferation rate T/C” value was 47.46% and the “Tumor inhibition rate (tumor weight)” value came out at 42.38%.
